Measured values as given in patent publication US4543254A, “Antiphlogistic/antipyretic/analgesic agents containing theobromine or theophylline derivatives as active ingredient” (Eisai Co., Ltd., priority 1982, dated 1985).

Experiment: in vivo
Conditions: po, p.o., read-out: Safety margin (LD50/ED50)
Description: Ten mice were used for each dose and morality was determined for 3 days after administration of each test compound of the invention. In the case of the rats, 5 rats were used for each dose and morality was determined 7 days after administrations.

With `Cn1cnc2c1c(=O)n(CCCN1CCN(c3ccc(Cl)c(Cl)c3)CC1)c(=O)n2C` [Compound A', 1-(3-(4-(3,4-dichlorophenyl)piperazinyl-(1))-n-propyl)theobromine] the selectivity ratio (mouse, mice) was greater than 100 and the selectivity ratio (rat, rats) was no less than 50.

Like-named read-outs stand apart in the source and are kept apart here.
